Measurements from US6759509B1, “Branched peptide linkers” (Bristol-Myers Squibb Company, priority 1996, dated 2004).

Test: decomposition of the isolated drug/linker in solution
Type: physicochemical
Details: by HPLC for Example 31
Procedure: A solution of MEt-IDA-(Phe-Lys(Mtr)-PABC-MMC)2 30 (134.6 mg, 0.0590 mmol) in methylene chloride (3 mL) at rt was treated with anisole (1.28 mL, 200 equiv) and 1 M chloroacetic acid in methylene chloride (1.18 mL, 20 equiv). After 3.5 h ethyl acetate (30 mL) was added. The resulting purple solid was collected by filtration, washed with ethyl acetate and air-dried (97.8 mg, 82%). […] MS (FAB) 1738.3 (M+Na)^+, 1776.4 (M+K)^+.
MEt-IDA-(Phe-Lys(Mtr)-PABC-7-Paclitaxel)2 33 (333.0 mg, 0.0861 mmol) in methylene chloride (3 mL) was treated with anisole (1.87 mL, 200 equiv) and 1 M chloroacetic acid in methylene chloride (1.72 mL, 20 equiv). After 4 h the mixture was diluted with ether (30 mL). The resulting suspension was sonicated for several minutes and then the solid was collected by filtration and washed with ether (256.3 mg, 97%). […] MS (ESI) 2778.2 (MH)^+.

stability of the product in solution: decompose slowly in solution
Substance: MEt-IDA-(Phe-Lys-PABC-7-Paclitaxel)2.2ClCH2CO2H [Example 34]
